Results as given in PMC8585037 (International Journal of Molecular Sciences, 2021).

System: DA, 3-MT, DOPAC, 5-HT and 5-HIAA in dorsal striatum and nucleus accumbens
Experiment: Neurotransmitter and metabolite concentrations in post-mortem mouse brain tissue
Assay type: in vivo
[1] = Dorsal Striatum, 20 min after 3.75 mg/kg i.p.
[2] = Dorsal Striatum, 20 min after 12.5 mg/kg i.p.
[3] = Nucleus Accumbens, 20 min after 3.75 mg/kg i.p.
[4] = Nucleus Accumbens, 20 min after 12.5 mg/kg i.p.

Question: For `CN[C@@H](C)Cc1ccccc1` [methamphetamine], which 5-HIAA concentration [1] is on record?
Answer: 4.4 ± 0.6 nmol/g

Question: And the DOPAC concentration [1]?
Answer: 22.0 ± 3.2 nmol/g

Question: What about the 5-HIAA concentration [2] of the same molecule?
Answer: 4.3 ± 0.6 nmol/g

Question: What about the DOPAC concentration [2] of the same molecule?
Answer: 12.1 ± 2.6 nmol/g

Question: What about the 5-HIAA concentration [3] of the same molecule?
Answer: 10.6 ± 1.4 nmol/g

Question: And the DOPAC concentration [3]?
Answer: 28.8 ± 2.6 nmol/g

Question: What about the 5-HIAA concentration [4] of the same molecule?
Answer: 8.4 ± 1.9 nmol/g

Question: And the DOPAC concentration [4]?
Answer: 12.5 ± 2.7 nmol/g

Question: What about the “DOPAC concentration, % of control” value (dorsal striatum, 3.75 mg/kg i.p., vs saline) of the same molecule?
Answer: 53 % of control

Question: What about the “DOPAC concentration, % of control” value (dorsal striatum, 12.5 mg/kg i.p., vs saline) of the same molecule?
Answer: 29 % of control

Question: And the “3-MT concentration, % of control” value (dorsal striatum, 12.5 mg/kg i.p., vs saline (tendency))?
Answer: 153 % of control

Question: What about the “3-MT concentration, % of control” value (nucleus accumbens, 3.75 mg/kg i.p., vs saline) of the same molecule?
Answer: 369 % of control
